In the library only some 16% were active in any assay of this set; here they are far more common.
DT40 TDP1 CPT: DT40-hTDP1 cell growth loss with CPT | chicken DT40 Tdp1-/-;hTDP1 cells + 20 nM CPT, ATP luminescence, 48 h | Potency, µM (titrated, usually from 46.2 µM), most hits filed as inhibitors | 420,000 tested, 12% active; also: nearly all actives have a fitted effect of over 55% in size
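Chicken DT40 Tdp1-/- cells complemented with human TDP1, 400 cells/well, exposed to compounds plus 20 nM camptothecin for at least 48 h at 37 C; viability read as ATP content by CellTiter-Glo luminescence.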
miR-21 reporter: miR-21 reporter, rising signal; HeLa miR-21 FLuc reporter, luciferase, 48 h; Potency, µM (doses to about 38.3 µM); 340,000 tested, under 10 active; AID 2288; active = well fitted rising curve with a large enough effect; inconclusive = small, poorly fitted or top-dose-only effect; inactive = no such curve, though single readings can be large or run the other way;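 further: miR-21 action dims this reporter so a rising signal means less miR-21 action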
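Using DMEM plus 10% FBS, HeLa miR-21-FLuc cells are incubated with test compounds (final up to about 40uM) for 48 hours; firefly luciferase signal is then imaged following reagent-mediated lysis.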
DT40 TDP1 no CPT: qHTS for Inhibitors of human tyrosyl-DNA phosphodiesterase 1 (TDP1): qHTS in cells in absence of CPT; DT40 Tdp1-/- hTDP1 cells, no CPT, ATP luminescence, 48 h; Potency, µM (series often up to 46.2 µM), hits mostly inhibitors; 420,000 tested, 15% active; AID 686978, 2013; also: nearly all actives have a fitted effect of over 55% in size
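No-CPT arm: Tdp1-/-;hTDP1 DT40 cells (400/well) plus compounds, incubated ≥48 hr at 37 °C. Readout CellTiter-Glo luminescence.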
uPA surface inh: blocks generation of uPA at the cell surface | cell surface uPA generation assay, qHTS | Potency, µM (titrated, usually from 38.3 µM), actives largely listed as inhibitors | 330,000 tested, 0.31% active | AID 540303; active = well fitted inhibition curve with a large enough effect; inconclusive = small, poorly fitted or top-dose-only effect; inactive = no such curve, though single readings can be large or run the other way; tested in mouse RAW 264.7 cells; also: nearly all actives have a fitted effect of over 55% in size
TDP1 block: inhibitors of human tyrosyl-DNA phosphodiesterase TDP1; recombinant TDP1, AlphaScreen DNA substrate cleavage; Q9NUW8; 350,000 tested, 0.28% active; Potency, µM (doses to about 130 µM), most hits filed as inhibitors; also: nearly all actives have a fitted effect of over 40% in size
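E. coli-derived human Tdp1, 1 nM final. Cpd preinc 15 min RT; substrate 15 nM final, 5 min RT; AS bead mix 10 ug/ml final, 10 min RT. Signal loss = tyrosine-FITC cleavage. No-enzyme wells = max signal.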
A number is an active result; - = inactive; ? = inconclusive; . = no result; [ ] = another dose, or the depositor's remark. Unless noted, calls follow the shape of the dose curve; as a rule, active = well fitted curve in the direction sought with a large enough effect; inconclusive = small, poorly fitted or top-dose-only effect, or another doubt; inactive = no such curve, though single readings can be large; an effect the other way counts as inactive or inconclusive.

SMILES	DT40 TDP1 CPT	miR-21 reporter	DT40 TDP1 no CPT	uPA surface inh	TDP1 block
Cc1ccc(NC(=O)C2COc3ccccc3O2)cc1 (centres undefined)	-	-	-	-	-
COc1ccc(C)cc1N(CC(=O)N1CCc2ccccc2C1)S(C)(=O)=O	-	-	-	-	-
O=C(O)CCCCCNc1nc(=S)[nH]c2ccccc12	-	-	-	-	-
O=C(CNC(=S)NC(=O)c1cccc([N+](=O)[O-])c1)c1ccccc1	-	-	-	-	-
O=C(NC(=S)NNC(=O)c1ccccc1O)c1cccc([N+](=O)[O-])c1	23µM	-	23µM	-	.
COc1ccc(C(=O)NNC(=S)NC(=O)c2cccc([N+](=O)[O-])c2)cc1	?	.	18µM	-	.
CC1CN(C(=S)NC(=O)c2cccc([N+](=O)[O-])c2)CC(C)O1 (centres undefined)	?	-	16µM	-	-
CCC(CC)=NNc1cccc([N+](=O)[O-])c1	-	-	-	-	-
COc1ccc(C(=O)/C(C#N)=N/Nc2cccc([N+](=O)[O-])c2)cc1	5.8µM	-	4.1µM	?	-
CCOc1ccc(C2C(C(=O)Nc3ccccc3OC)=C(C)Nc3c(C(=O)Nc4cccc(C)c4)cnn32)cc1 (centres undefined)	?	-	?	.	-
O=C(c1cnccn1)N1CCN(c2ccccc2)CC1	-	-	-	-	-
CCCCCCCCCCCC(=O)NC(C(=O)OCC)C(O)c1cccc([N+](=O)[O-])c1 (centres undefined)	16µM	-	23µM	-	-
CCOc1ccc(C(=O)NC(=S)Nc2ccccn2)cc1[N+](=O)[O-]	?	-	?	-	-
O=C(NC(=S)Nc1ccccn1)c1cccc([N+](=O)[O-])c1	?	-	18µM	-	-
CCCCCC(=O)NNC(=S)NC(=O)c1ccccc1[N+](=O)[O-]	?	-	?	-	-
CCCCCC(=O)NNC(=S)NC(=O)c1cccc([N+](=O)[O-])c1	15µM	-	13µM	-	-
COc1cccc(N(C(C)=O)c2nc(C)cc(C)c2C#N)c1	-	-	-	-	-
O=C1OC(c2ccc3ccccc3c2O)(c2ccc3ccccc3c2O)c2ccccc21	5.8µM	.	5.2µM	-	.
O=C1OC(c2ccccc2)(c2cc(Br)ccc2O)c2ccccc21 (centres undefined)	18µM	.	?	-	.
O=C1OC(c2ccccc2)(c2ccc3cc(O)ccc3c2)c2ccccc21 (centres undefined)	21µM	.	?	-	.
O=C1OC(c2ccc(O)cc2)(c2ccccc2O)c2ccccc21 (centres undefined)	-	.	-	-	.
COc1cccc(N2CCN(c3ncnc4c3[nH]c3ccccc34)CC2C)c1 (centres undefined)	.	?	.	.	-
COc1ccc2[nH]c3c(N4CC(C)OC(C)C4)ncnc3c2c1 (centres undefined)	?	-	15µM	-	-
COc1cccc(N2CCN(c3ncnc4c3[nH]c3ccc(F)cc34)CC2C)c1 (centres undefined)	1.6µM	?	1.6µM	-	-
Cn1c(SC2C(=O)CC(C)(C)CC2=O)nnc1-c1ccco1	-	-	-	-	-
SMILES	DT40 TDP1 CPT	miR-21 reporter	DT40 TDP1 no CPT	uPA surface inh	TDP1 block
Cc1ccc(NC(=O)c2c(O)c3ccccc3n(C)c2=O)nc1	?	-	21µM	-	-
Cc1ccnc(NC(=O)c2c(O)c3ccccc3n(C)c2=O)c1	.	-	.	.	-
Cc1cccc(NC(=O)c2c(O)c3ccccc3n(C)c2=O)c1	?	-	15µM	-	.
Cc1ccc(C)c(N2CCN(C(=O)CCC(=O)N3CCOc4ccc(Cl)cc43)CC2)c1	15µM	?	26µM	-	.
COc1ccc(N2CCN(CCCNC(=O)CCC(=O)N3CCOc4ccc(Cl)cc43)CC2)cc1	?	-	?	-	-
O=C(CCC(=O)N1CCOc2ccc(Cl)cc21)NCCCN1CCN(c2ccccc2F)CC1	21µM	-	18µM	-	.
Cc1ccc(CSCCC(=O)N2CCN(c3cc(C)ccc3C)CC2)cc1	23µM	-	13µM	.	-
O=C(CCC(=O)N1CCOc2ccc(Cl)cc21)NCCCN1CCC(Cc2ccccc2)CC1	?	-	18µM	?	.
Cc1ccc(C)c(N2CCN(CCCNC(=O)CCC(=O)N3CCOc4ccc(Cl)cc43)CC2)c1	.	-	.	.	-
CC(Oc1cc(F)ccc1[N+](=O)[O-])C(=O)N(C)CC(=O)Nc1ccccc1C(F)(F)F (centres undefined)	-	-	-	-	-
CCNc1ncc2ncc(=O)n(C)c2n1	?	.	-	.	.
CCn1c2ccccc2c2cc(CN3CCN(Cc4ccccc4C)CC3)ccc21	16µM	-	?	.	-[12.3 µM]
CCn1c2ccccc2c2cc(CN3CCN(Cc4ccc(Cl)cc4)CC3)ccc21	15µM	-	?	.	-[12.3 µM]
CCn1c2ccccc2c2cc(CN3CCN(S(C)(=O)=O)CC3)ccc21	15µM	-	16µM	-	-
Cc1cc(C)n2nc(C(=O)Nc3cc(S(=O)(=O)N4CCCCC4)ccc3C)nc2n1	-	.	?	-	-
O=C(CCC1N=C2c3ccccc3N=C(SCc3ccc(Cl)cc3)N2C1=O)N1CCN(c2ccccc2)CC1 (centres undefined)	16µM	-	21µM	.	-
Cc1ccc(CSC2=Nc3ccccc3C3=NC(CCC(=O)N4CCN(c5ccccc5)CC4)C(=O)N23)cc1 (centres undefined)	21µM	-	21µM	.	-[12.3 µM]
O=C(Nc1nnc([C@H]2C[C@H](O)[C@@H](CO)O2)s1)c1ccccc1F	-	.	-	.	.
COc1cccc(NC(=O)C2CCN(S(=O)(=O)c3c(C)noc3/C=C/c3cccs3)CC2)c1	?	-	13µM	.	-
COc1ccc(NC(=O)C2CCN(S(=O)(=O)c3c(C)noc3/C=C/c3cccs3)CC2)cc1	-	-	?	.	-
COc1ccccc1CNC(=O)C1CCN(S(=O)(=O)c2c(C)noc2/C=C/c2cccs2)CC1	18µM	-	18µM	.	-
CC(=O)N1CCOc2ccc(S(=O)(=O)NCCc3ccc(Cl)cc3)cc21	-	-	-	-	-
COc1ccc(C(=O)NC2CC(C)(C)Cc3c2cnn3-c2ccccc2C)c(OC)c1OC (centres undefined)	23µM	-	16µM	-	-
O=C(NCc1cccnc1)c1cc(C2CCCCN2S(=O)(=O)c2ccccc2)on1 (centres undefined)	-	.	?	.	.
O=C(NCc1ccc(F)cc1)c1cc(C2CCCCN2S(=O)(=O)c2ccc(F)cc2F)on1 (centres undefined)	23µM	.	?	.	.
O=C(NCc1ccccc1)c1cc(C2CCCCN2S(=O)(=O)c2ccccc2)on1 (centres undefined)	?	.	26µM	.	.
N#Cc1cccc(NC(=O)c2cc(C3CCCCN3S(=O)(=O)c3ccccc3)on2)c1 (centres undefined)	?	.	16µM	.	.

Assay outcomes from PubChem.
